Tests used:
[1] = test system: Fluoroquinolone Sensitive Strains; experiment: In-vitro antimicrobial test (MIC, two-fold serial agar dilution, NCCLS), Table 17; format: cell-based; conditions: for MIC: Pseudomonas aeruginosa, read-out: MICs, P. aeruginosa 27853
in vivo = conditions: Swiss, mouse, po
[2] = oral, swiss mice, solution form

Molecule: COc1c(N2CCC(N)C(C)(C)C2)c(F)cc2c(=O)c(C(=O)O)cn(C3CC3)c12.Cl (single isomer, unassigned; (+)) [Compound 22, (+)-1-Cyclopropyl-6-fluoro-1,4-dihydro-8-methoxy-7-(4-amino-3,3-dimethyl-1-piperidinyl)-4-oxo-quinoline-3-carboxylic acid hydrochloride]
- MIC [1]: 6.25 µg/mL

Molecule: COc1c(N2CCC(N)C(C)(C)C2)c(F)cc2c(=O)c(C(=O)O)cn(C3CC3)c12.Cl (single isomer, unassigned; (-)) [Compound 26, (−)-1-Cyclopropyl-6-fluoro-1,4-dihydro-8-methoxy-7-(4-amino-3,3-dimethyl-1-piperidinyl)-4-oxo-quinoline-3-carboxylic acid hydrochloride]
- MICs ([1]; P. aeruginosa 27853): 6.25 µg/mL

Molecule: COc1c(N2CCC(N)C(C)(C)C2)c(F)cc2c(=O)c(C(=O)O)cn(C3CC3)c12.Cl (racemic) [Compound 18, (±)-1-Cyclopropyl-6-fluoro-1,4-dihydro-8-methoxy-7-(4-amino-3,3-dimethyl-1-piperidinyl)-4-oxo-quinoline-3-carboxylic acid hydrochloride]
- MIC [1]: 6.25 µg/mL
- LD50 (in vivo): 650 mg/kg

Molecule: (±)-1-Cyclopropyl-6-fluoro-1,4-dihydro-8-methoxy-7-(4-amino-3,3-dimethyl-1-piperidinyl)-4-oxo-quinoline-3-carboxylic acid gluconate [Compound 20]
- median lethal dose (LD50) [2]: 650 mg/kg
